The values below come from patent US20220401514A1, “ANTIMICROBIAL, BACTERIOPHAGE-DERIVED POLYPEPTIDES AND THEIR USE AGAINST GRAM-NEGATIVE AND ACID-FAST BACTERIA” (CONTRAFECT CORPORATION, priority 2019, published 2022).

Assay [1] deals with P. aeruginosa strain CFS-1292. The experiment in a line: Checkerboard assay (FICI) with antibiotics, P. aeruginosa. The note with it: P. aeruginosa CFS-1292, CAA + […] human serum.
For assay [2], the system named is Acinetobacter baumannii strain 30. The experiment in a line: Checkerboard assay (FICI) with antibiotics, A. baumannii.
Assay [3] deals with Klebsiella pneumoniae strain 1139. The experiment in a line: Checkerboard assay (FICI) with antibiotics, K. pneumoniae.
Where [4] appears, read: checkerboard, in combination with Unp2-M1.

On to `CC[C@H]1OC(=O)[C@H](C)[C@@H](O[C@H]2C[C@@](C)(OC)[C@@H](O)[C@H](C)O2)[C@H](C)[C@@H](O[C@@H]2O[C@H](C)C[C@H](N(C)C)[C@H]2O)[C@](C)(O)C[C@@H](C)CN(C)[C@H](C)[C@@H](O)[C@]1(C)O` [Azithromycin], for which the “Antibiotic MIC in checkerboard” value in assay [1] (combined with Chp2-M1) was found to be 8 µg/mL; in assay [1] (combined with Chp2), 16 µg/mL; in assay [1] (combined with Chp4-M1), 16 µg/mL; in assay [1] (combined with Chp6-M1), 16 µg/mL; in assay [1] (combined with Chp10-M1) it was 8 µg/mL; in assay [1] (combined with Unp2-M1), 8 µg/mL.

In the case of `C[C@@H](O)[C@H]1C(=O)N2C(C(=O)O)=C(SCCN=CN)C[C@H]12` [Imipenem], the “Antibiotic FIC” value came out at 0.5 in assay [2] (in combination with Chp2) and 0.0625 in assay [3] (setting [4]). The “Antibiotic MIC” value in assay [2] (in combination with Chp2) was determined as 0.5 µg/mL; in assay [2] (in combination with Unp2-M1), 0.25 µg/mL; in assay [3] (checkerboard, in combination with Chp4-M1) it was 0.0625 µg/mL; in assay [3] (checkerboard, in combination with Chp6-M1), 0.0625 µg/mL; in assay [3] (checkerboard, in combination with Chp10-M1), 0.0625 µg/mL; in assay [3] (setting [4]) it was 0.0625 µg/mL. Also, the “Antibiotic MIC in checkerboard” value in assay [3] (combined with Chp2) and in assay [3] (combined with Chp2-M1) was 0.0625 µg/mL in each case.

For the molecule `C[C@H]1COc2c(N3CCN(C)CC3)c(F)cc3c(=O)c(C(=O)O)cn1c23` [Levofloxacin], the “Antibiotic MIC” value in assay [2] (in combination with Chp2) came out at 0.03125 µg/mL; in assay [2] (in combination with Chp2-M1) it was 0.03125 µg/mL; in assay [2] (in combination with Chp4-M1) it was 0.03125 µg/mL; in assay [2] (in combination with Chp6-M1) it was 0.0625 µg/mL; in assay [2] (in combination with Chp10-M1), 0.0625 µg/mL; in assay [2] (in combination with Unp2-M1) it was 0.0625 µg/mL.
